According to patent publication US8933028B2, “Use of selective estrogen receptor modulator for joint fusion and other repair or healing of connective tissue” (priority 2010, dated 2015):

Assays:
Type in all cases: in vivo, human
sacroiliac joint [1] = experiment: Sacroiliac joint fusion in post menopausal women using exogenous BMP-2 alone, computerized tomography; conditions: postmenopausal females, BMP-2 only at surgery, computerized tomography three months after surgery, FIG. 3
sacroiliac joint [2] = experiment: Sacroiliac joint fusion surgeries performed with and without exogenous BMP (open procedure)
Protocol: A series of sacroiliac joint fusion surgeries were performed using an open procedure to expose the sacroiliac joint. Exogenous BMP treatment was introduced at the site of surgery to some patients. The union and non-union rate of the sacroiliac joint 3 month intervals after the surgeries were compared. […] Specifically, BMP-2 (Infuse™ from Medtronic) was placed into the site in association with a collagen sponge along with a spinal fusion cage and bone graft. The union and non-union frequencies of sacroiliac joint fusion surgeries performed using the open procedure with and without exogenous BMP are analyzed and the results are listed in Table 1. Although there are variations in the techniques used in the cases, and most of the with-BMP cases came later in the series, a chi-square test of the results has a p<0.00001, indicating statistically significant difference in the rate of fusion between the with and without BMP groups.
The influence of BMP on the outcome of the surgeries was further analyzed in different patient sub-groups. As shown in FIG. 2 (a), while non-smokers responded favorably for the use of BMP, the effect is more pronounced for smokers. In fact, the use of BMP has filled the fusion rate gap between the smokers and non-smokers. […] When BMP is used, however, both the smoker and non-smoker appear to have fusion rate of >90%. […] When BMP is used, the gap between the fusion rate of male and female patient shrank to less than 10% and both patient group appear to have fusion rate of 90% or greater.

sacroiliac joint [3] = experiment: Effect of oral raloxifene on bone healing after sacroiliac joint fusion with BMP-2; conditions: females over 60, BMP-2 at surgery in all patients
From the text: The patients involved in the study were female at age of over 60 years old.

[4] = number of cases, open procedure, BMP-2 (Infuse) on collagen sponge with spinal fusion cage and bone graft

B1: BMP: BMP-2 (Infuse™ from Medtronic) placed into the site in association with a collagen sponge (protein, UniProt P12643 283-396, looked up)
Bone morphogenetic protein 2: QAKHKQRKRLKSSCKRHPLYVDFSDVGWNDWIVAPPGYHAFYCHGECPFPLADHLNSTNHAIVQTLVNSVNSKIPKACCVPTELSAISMLYLDENEKVVLKNYQDMVVEGCGCR
modifications: collagen sponge
notes: BMP-2 (Infuse™ from Medtronic) placed into the site in association with a collagen sponge
incorporation of bone grafts (sacroiliac joint [1]): compromised incorporation
gap between the fusion rate of male and female patient (sacroiliac joint [2]; BMP used, FIG. 2(b)): less than 10%
union rate versus cases without BMP (sacroiliac joint [2]; exogenous BMP delivered locally at the site of the fusion, chi-square p<0.00001): Significant improvement
fusion rate (sacroiliac joint [2]; male and female patient groups, BMP used, FIG. 2(b)): ≥ 90%
Non-Union (Sacroiliac Fusion Cases) (sacroiliac joint [2]; [4]): 1
Union (Sacroiliac Fusion Cases) (sacroiliac joint [2]; [4]): 70
fusion rate (sacroiliac joint [2]; smokers and non-smokers, BMP used, FIG. 2(a)): > 90%
bone healing / maturity of bone (sacroiliac joint [3]; raloxifene 60 mg/day orally for three months after surgery): not as mature
bone graft incorporation into host bone (images) (sacroiliac joint [3]; three months after surgery, FIGS. 5-7): not fully incorporated
